Target: Epidermal growth factor receptor (Homo sapiens, UniProt P00533)
Experiment: Inhibition of human recombinant EGFR expressed in insect Sf9 cells

Protein sequences, listed by entry. Tags and fused reporters are not part of them.
UniProt P00533, whole entry: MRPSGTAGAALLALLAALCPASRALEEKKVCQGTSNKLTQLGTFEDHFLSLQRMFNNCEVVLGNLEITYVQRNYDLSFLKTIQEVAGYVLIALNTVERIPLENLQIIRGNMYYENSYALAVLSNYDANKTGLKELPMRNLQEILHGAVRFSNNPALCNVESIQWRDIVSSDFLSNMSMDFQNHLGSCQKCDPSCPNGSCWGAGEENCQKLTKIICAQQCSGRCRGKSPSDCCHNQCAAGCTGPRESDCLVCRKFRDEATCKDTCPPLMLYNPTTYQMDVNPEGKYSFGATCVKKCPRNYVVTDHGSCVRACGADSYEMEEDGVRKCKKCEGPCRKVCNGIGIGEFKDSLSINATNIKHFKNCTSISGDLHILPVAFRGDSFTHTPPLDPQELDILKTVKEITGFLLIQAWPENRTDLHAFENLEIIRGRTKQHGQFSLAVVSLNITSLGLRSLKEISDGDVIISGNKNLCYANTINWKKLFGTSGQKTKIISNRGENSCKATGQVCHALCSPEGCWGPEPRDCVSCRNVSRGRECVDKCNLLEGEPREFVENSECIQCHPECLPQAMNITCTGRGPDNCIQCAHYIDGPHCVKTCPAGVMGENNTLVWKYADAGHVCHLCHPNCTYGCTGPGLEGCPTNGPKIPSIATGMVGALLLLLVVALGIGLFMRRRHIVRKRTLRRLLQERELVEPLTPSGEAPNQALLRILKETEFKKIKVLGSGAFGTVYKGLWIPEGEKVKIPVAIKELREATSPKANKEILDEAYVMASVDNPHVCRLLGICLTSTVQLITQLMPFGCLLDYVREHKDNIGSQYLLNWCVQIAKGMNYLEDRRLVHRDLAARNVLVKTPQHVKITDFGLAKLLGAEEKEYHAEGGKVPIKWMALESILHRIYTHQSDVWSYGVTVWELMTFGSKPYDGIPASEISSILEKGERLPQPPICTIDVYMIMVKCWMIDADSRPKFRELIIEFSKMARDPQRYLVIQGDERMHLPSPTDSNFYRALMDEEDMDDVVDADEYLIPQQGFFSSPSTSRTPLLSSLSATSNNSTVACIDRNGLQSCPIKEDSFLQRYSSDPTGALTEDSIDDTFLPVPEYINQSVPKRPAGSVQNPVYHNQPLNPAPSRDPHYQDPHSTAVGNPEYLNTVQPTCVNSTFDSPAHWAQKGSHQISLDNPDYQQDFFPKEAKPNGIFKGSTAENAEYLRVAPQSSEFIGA

IC50: 560 nM
SMILES: Fc1cccc(COc2ccc(Nc3ncnn4ccc(COC[C@@H]5CNCCO5)c34)cc2Cl)c1

Reference: ChEMBL document CHEMBL1140690, “5-((4-Aminopiperidin-1-yl)methyl)pyrrolotriazine dual inhibitors of EGFR and HER2 protein tyrosine kinases” (Bioorg Med Chem Lett, 2007)
